Biological target: Human LC3B (residues 1-120) (human) (UniProt Q9GZQ8)
Experiment: ITC

- Kd: 46 µM
Substance: TEX264 269-278 S271A,S272A

— article doi:10.1101/2022.02.11.480038
